# This is a selection; strong and weak results do not stand in their true shares. Some tests of the compounds listed are not included; inactive here does not mean inactive elsewhere. Calls of active or inactive are those of the source. No stated cut-off is given here; in the data, active means inhibition above about 30%; inconclusive means no clear call, values can overlap the other calls; inactive means below that.
# Test system: Botulinum neurotoxin type A light chain protease (Clostridium botulinum A str. ATCC 3502)
# Experiment: BoNT/A light chain protease inhibitors, primary screen, biochemical, flow cytometry, MLPCN library (AID 588499); further: plate controls were buffer without enzyme for full effect and enzyme alone for no effect
# Conditions: multiplex microsphere protease substrate cleavage, at 10 µM, stronger effect = higher value
row,SMILES,inhibition
1,COc1cc(SC)ccc1C(=O)NCC1(N(C)C)CCCCC1,inactive: 1.2%
2,CCN(CC)CC(C)C(C)OC(=O)C(O)(c1ccccc1)c1ccccc1 (stereo unspecified),inactive: 0.7%
3,CC(C)N1C(=O)CC2(CCN(CCOC(=O)C(O)(c3ccccc3)c3ccccc3)CC2)C1=O,inactive: -0.3%
4,Cc1ccc(C(=O)NCC2(N3CCCCC3)CCCCC2)cc1,inactive: 0.9%
5,O=C(NCC1(N2CCCCC2)CCCCC1)c1cc([N+](=O)[O-])ccc1Cl,inactive: 1.2%
6,CN1[C@@H]2CC[C@H]1CC(OC(=O)C(O)(c1ccccc1)c1ccccc1)C2 (stereo partly specified),inactive: -1.2%
7,O=C(NCC1(N2CCCCC2)CCCCC1)c1cc(F)c(F)cc1Cl,inactive: -1.1%
8,C=CCN1CCN(CCOC(=O)C(O)(c2ccccc2)c2ccccc2)CC1,inactive: 0.2%
9,COc1ccc(C(=O)NCC2(N(C)C)CCCCC2)cc1,inactive: -1.1%
10,O=C(NCC1(N2CCCCC2)CCCCC1)c1cccc(Br)c1,inactive: -0.8%
11,CCN1CCCC(OC(=O)C2(O)c3ccccc3C=Cc3ccccc32)C1 (stereo unspecified),inactive: -0.5%
12,Cc1cc(C(=O)NCC2(N3CCCCC3)CCCCC2)ccc1[N+](=O)[O-],inactive: -2.2%
13,CN(C)c1ccc(C(=O)NCC2(N(C)C)CCCCC2)cc1,inactive: -3.5%
14,CN(C)C1CCCC1OC(=O)C(O)(c1ccccc1)c1ccccc1 (stereo unspecified),inactive: -1.1%
15,Cc1ccccc1C(=O)NCC1(N2CCCCC2)CCCCC1,inactive: 0.8%
16,COc1ccc(Cl)cc1C(=O)NCC1(N(C)C)CCCCC1,inactive: -0.5%
17,COc1cccc(C(=O)NCC2(N3CCCCC3)CCCCC2)c1,inactive: -0.2%
18,O=C(NCC1(N2CCCCC2)CCCCC1)c1cccc(Cl)c1,inactive: 3%
19,CN(C)C1(CNC(=O)c2ccc(Br)cc2)CCCCC1,inactive: 0.2%
20,COc1cc(C(=O)NCC2(N(C)C)CCCCC2)c([N+](=O)[O-])cc1OC,inactive: -0.4%
21,C=C(C)C#CC(O)(C(=O)OC1CCN(C)CC1)c1ccccc1 (stereo unspecified),inactive: -0.3%
22,COc1ccc(Br)c(C(=O)NCC2(N3CCCCC3)CCCCC2)c1,inactive: 3.5%
23,O=C(OCCN1CCCC1)C(O)(c1ccccc1)c1ccccc1,inactive: 0.5%
24,CC(C)Oc1ccc(C(=O)NCC2(N(C)C)CCCCC2)cc1,inactive: 2.8%
25,CN(C)c1cccc(C(=O)NCC2(N(C)C)CCCCC2)c1,inactive: -0.1%
26,O=C(OC1CN2CCC1CC2)C(CO)(c1ccccc1)c1ccccc1 (stereo unspecified),inactive: -0.3%

# From PubChem BioAssay AID588499 (NMMLSC, 2011)
